Assay results from patent US20260109713A1, “SIRTUIN MODULATING COMPOUNDS, INCLUDING SIRTUIN ACTIVATING COMPOUNDS, AND APPLICATIONS THEREOF” (CODAGEN BIOSCIENCES, INC., priority 2022, published 2026).

Molecular target: T1, hSIRT3 (Homo sapiens, UniProt Q9NTG7)
T1 construct: His-tag; purchased Enzo Life Sciences (Farmingdale, NY)
T1 sequence (Q9NTG7 102-399): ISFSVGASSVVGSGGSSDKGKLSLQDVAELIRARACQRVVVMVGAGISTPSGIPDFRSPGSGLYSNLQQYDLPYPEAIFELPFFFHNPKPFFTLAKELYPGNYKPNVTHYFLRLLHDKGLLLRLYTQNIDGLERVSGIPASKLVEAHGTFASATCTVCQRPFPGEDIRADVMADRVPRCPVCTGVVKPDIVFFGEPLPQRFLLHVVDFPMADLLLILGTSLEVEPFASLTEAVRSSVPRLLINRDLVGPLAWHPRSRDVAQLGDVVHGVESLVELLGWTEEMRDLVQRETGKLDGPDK
Assay: Fluorescence-based SIRT3 deacetylation assay using FdL2 peptide, steady state (Conditions I)
Assay type: biochemical
Details: [cpd]=50 μM; [NAD+]=1 mM, [FdL2 peptide]=50 μM, 30 min
Method: FIG. 4. Effect of top ranked hit compounds on Sirt3 deacetylation activity.
The 6 top ranked compounds from DEL screening were tested modulation effect of SIRT3 using fluorescence-based assay (FIG. 4).
The enzymatic reactions were carried out similar to as described above. The reaction was terminated by adding the 1× developer 2 mM NAM solution and measured the fluorescence on TECAN microplate reader. The raw data were fitted to the defined model equations using GraphPad Prism (GraphPad Software, Inc, CA).

C=CCc1ccc(O)c(-c2ccc(O)c(CC=C)c2)c1 [HKL, Honokiol, reference compound]
SIRT3 deacetylation activity, % control, 50 μM or Maxi: 68.5%
